In this assay the test system is MOLP8 multiple myeloma cells. Kind of assay: MOLP8 xenograft: BT062 and VELCADE combination therapy. In kind it is in vivo, mouse. The following applies: Velcade alone, dosed days 1, 4, 8 and 11; day 10.

Each structure is given as a SMILES string.

For `CC(C)C[C@H](NC(=O)[C@H](Cc1ccccc1)NC(=O)c1cnccn1)B(O)O` [Velcade, reference compound], the “Fractional tumor volume (FTV)” value turned out to be 1.05.

Values taken from US9289509B2, “Uses of immunoconjugates targeting CD138” (Biotest AG, priority 2009, dated 2016).
